# Measurements reported in ChEMBL document CHEMBL2046392, “Synthesis and evaluation of carbocyanine dyes as PRMT inhibitors and imaging agents” (Eur J Med Chem, 2012).
# System: HeLa
# Experiment: Cytotoxicity against human HeLa cells after 48 hrs […]
# Type: functional, cell-based
smiles,measurement,value
CCn1/c(=C\C=C\C2=[N+](CC)c3cccc4cccc2c34)c2cccc3cccc1c32.[I-],EC50,940 nM
